{
  "source": "patent US20250205356A1",
  "about": "“POLYMER-DRUG CONJUGATES” (PRIMELINK BIOTHERAPEUTICS (SHENZHEN) CO., LTD, priority 2022, published 2025)",
  "format_in_all_cases": "cell-based",
  "key": {"[1]": {"test_system": "HER2 positive NCI-N87 cells", "assay": "Antibody mediated internalization in HER2 expressing tumor cells, FACS", "conditions": "100 nM", "from_the_text": "(§1) The HER2 positive cell lines SKBR-3 cells and NCI-N87 cells and the test anti-HER2 ADCs (exemplary anti-HER2 ADCs ADC-2-1, ADC-2-2 and ADC-3, and the positive control ADCs DS-8201a and T-DM1) as used in Example 18 were also used in the following internalization assay. The culture conditions of two cell lines are the same as in Example 18.\n(§2) Cells were harvested with 0.25% Trysin/EDTA (Tl 320, Solarbio) and adjusted the cell concentration to 4×10^6 cells/mL with 1×PBS containing 1% FBS buffer. 100 μL cells per well were then plated in the 96-well cell culture plates and incubated with Trastuzumab and the test anti-HER2 ADCs at a final concentration 100 nM for seven time points (0, 0.5, 2, 4, 8, 16, and 24 hours). The mixtures were incubated at 4° C. in an atmosphere of 5% CO2 in air. At specific time points, cells were immediately washed twice and suspended in 100 μL cold wash buffer containing 2% paraformaldehyde for 30 mins. Cells were washed twice and then incubated with 1×PE anti-human IgG Fc Antibody (Cat. No. 366904, Biolegend) at 4° C. and 5% CO2 for another one hour. After the two-step washing by washing buffer, cells were re-suspended in 100 μL FACS buffer, CytoFlex Cytometry (Beckman Coulter) was used to detect the fluorescent signals of cells. The internalization ratio at several time points were calculated as the missing rate of median fluorescence intensity (MFI) values at specific time point in that at 0 hours. Curves of internalization rate versus incubation time (hours) were plotted with the Graphpad Prism Software."}, "[2]": {"test_system": "HER2 positive SKBR-3 cells", "assay": "Antibody mediated internalization in HER2 expressing tumor cells, FACS", "conditions": "100 nM", "from_the_text": "as §1, §2"}, "[3]": {"test_system": "NCI-N87 cells", "assay": "In vitro cytotoxic assay of anti-HER2 ADCs (CellTiter-Glo)", "conditions": "72-hour incubation, FIG. 3", "protocol": "(§3) Cytotoxicity of exemplary anti-HER2 ADCs was investigated using SKBR-3 cells (Breast cancer, ATCC No. HTB30) and NCI-N87 cells (Gastric cancer, ATCC No. CRL-5822) and compared to the positive control ADCs DS-8201a and T-DM1.\n(§4) In brief, 5,000 cells/well of SKBR-3 cells and NCI-N87 cells were platted in white clear 96-well assay plates (Cat. No. 6005182, PerkinElmer) (excluding edge wells, which contained medium only) in 90 μL basic culture medium (McCoy's 5a medium for SKBR-3 cells and RPMI-1640 medium for NCI-N87 cells) containing 10% FBS, 1% Penicillin-Streptomycin Solution (BL505A, Biosharp Life Sciences), and 2 mM L-Glutamine (Cat. No. 25030081, ThermoFisher) and were grown at 37° C. in a humidified incubator at 5% CO2 atmosphere. After incubation overnight, each test anti-HER2 ADC or Trastuzumab was added to the respective wells in an amount of 10 μL of 10-concentrate tests from 100 nM to 0.015 nM. After additional 72-hour incubation, plates were removed from incubator and equilibrated to room temperature. […] After shaking the plates at 450 rpm for 3 mins followed by 10-min incubation without shaking, luminescence was measure on the Envision plate reader (Equipment No. 2104, PerkinElmer) with integration time of 250 ms per well. Curves of luminescence versus ADC concentration (μM) were fitted with GraphPad Prism Software."}, "[4]": {"test_system": "SKBR-3 cells", "assay": "In vitro cytotoxic assay of anti-HER2 ADCs (CellTiter-Glo)", "conditions": "72-hour incubation, FIG. 3", "protocol": "as §3, §4"}},
  "data": [
    {"substance": "DS-8201a", "values": [
      {"measurement": "MFI value of internalization assay", "setting": "[1]; 0 h", "result": 470434.6},
      {"measurement": "MFI value of internalization assay", "setting": "[1]; 0.5 h", "result": 485012.7},
      {"measurement": "MFI value of internalization assay", "setting": "[1]; 2 h", "result": 453325.2},
      {"measurement": "MFI value of internalization assay", "setting": "[1]; 4 h", "result": 399661.6},
      {"measurement": "MFI value of internalization assay", "setting": "[1]; 8 h", "result": 361668.5},
      {"measurement": "MFI value of internalization assay", "setting": "[1]; 16 h", "result": 357611.1},
      {"measurement": "MFI value of internalization assay", "setting": "[1]; 24 h", "result": 312219.9},
      {"measurement": "MFI value of internalization assay", "setting": "[2]; 0 h", "result": 111493.1},
      {"measurement": "MFI value of internalization assay", "setting": "[2]; 0.5 h", "result": 84105.2},
      {"measurement": "MFI value of internalization assay", "setting": "[2]; 2 h", "result": 91504.5},
      {"measurement": "MFI value of internalization assay", "setting": "[2]; 4 h", "result": 59683.6},
      {"measurement": "MFI value of internalization assay", "setting": "[2]; 8 h", "result": 55324.7},
      {"measurement": "MFI value of internalization assay", "setting": "[2]; 16 h", "result": 48587.4},
      {"measurement": "MFI value of internalization assay", "setting": "[2]; 24 h", "result": 37770}
    ]},
    {"substance": "Trastuzumab: native antibody Trastuzumab (Genentech (Roche)), free antibody control", "values": [
      {"measurement": "MFI value of internalization assay", "setting": "[1]; 0 h", "result": 494263.3},
      {"measurement": "MFI value of internalization assay", "setting": "[1]; 0.5 h", "result": 505817.1},
      {"measurement": "MFI value of internalization assay", "setting": "[1]; 2 h", "result": 523528.4},
      {"measurement": "MFI value of internalization assay", "setting": "[1]; 4 h", "result": 412925.1},
      {"measurement": "MFI value of internalization assay", "setting": "[1]; 8 h", "result": 398055.9},
      {"measurement": "MFI value of internalization assay", "setting": "[1]; 16 h", "result": 408260.5},
      {"measurement": "MFI value of internalization assay", "setting": "[1]; 24 h", "result": 347311},
      {"measurement": "MFI value of internalization assay", "setting": "[2]; 0 h", "result": 114620.8},
      {"measurement": "MFI value of internalization assay", "setting": "[2]; 0.5 h", "result": 80551.7},
      {"measurement": "MFI value of internalization assay", "setting": "[2]; 2 h", "result": 88422.6},
      {"measurement": "MFI value of internalization assay", "setting": "[2]; 4 h", "result": 66067.7},
      {"measurement": "MFI value of internalization assay", "setting": "[2]; 8 h", "result": 53596.8},
      {"measurement": "MFI value of internalization assay", "setting": "[2]; 16 h", "result": 61201.3},
      {"measurement": "MFI value of internalization assay", "setting": "[2]; 24 h", "result": 43793.5},
      {"measurement": "cytotoxic activity", "setting": "[3]", "result": "only limited cytotoxic activity even at high concentrations"},
      {"measurement": "cytotoxic activity", "setting": "[4]", "result": "only limited cytotoxic activity even at high concentrations"}
    ]}
  ]
}
